From patent US10849898B2, “Treatment of relapsed and/or refractory solid tumors and non-Hodgkin's lymphomas” (CELGENE QUANTICEL RESEARCH, INC., priority 2016, dated 2020)

Key:
Experiment in all cases: cells
IMR-90 = details: Homo sapiens, IMR-90, read-out: Mean IC50
NCI-H69 = details: Homo sapiens, NCI-H69, read-out: Mean IC50
NCI-H146 = details: Homo sapiens, NCI-H146, read-out: Mean IC50
NCI-H841 = details: Homo sapiens, NCI-H841, read-out: Mean IC50

Structure (SMILES): COc1ccc(-c2c(-c3ccc(C#N)c(F)c3)nc(N3CCC(N)CC3)n(C)c2=O)cc1F [Compound A, 4-[2-(4-amino-piperidin-1-yl)-5-(3-fluoro-4-methoxy-phenyl)-1-methyl-6-oxo-1,6-dihydro-pyrimidin-4-yl]-2-fluoro-benzonitrile]
- IC50 (IMR-90): > 10000 µM
- IC50 (NCI-H69): 7 µM
- IC50 (NCI-H146): 9.9 µM
- IC50 (NCI-H841): > 500 µM
